Reference: patent US20260193317A1, “COMBINATION THERAPY WITH ACTRIIB RECEPTOR VARIANTS AND GLP-1 AGONISTS” (35PHARMA Inc., priority 2023, published 2026)

Legend:
[1] = in mice; cited from earlier work
[2] = Pharmacokinetic profiles in CD-1 mice
[3] = Co-formulation study of ectodomain-based traps with incretin mimetics (monomer content by SEC / RP-HPLC, integrity, stability); assay type: physicochemical
GIP receptor (GIPR) = target: T1, GIP receptor (GIPR) (Homo sapiens, UniProt P48546); assay: GIP receptor activation in CHO-K1 cells stably overexpressing GIPR; assay type: cell-based; settings: read-out: CBA Potency GIPR
T1 construct: host or cells: CHO-K1
T1 sequence (P48546 22-466): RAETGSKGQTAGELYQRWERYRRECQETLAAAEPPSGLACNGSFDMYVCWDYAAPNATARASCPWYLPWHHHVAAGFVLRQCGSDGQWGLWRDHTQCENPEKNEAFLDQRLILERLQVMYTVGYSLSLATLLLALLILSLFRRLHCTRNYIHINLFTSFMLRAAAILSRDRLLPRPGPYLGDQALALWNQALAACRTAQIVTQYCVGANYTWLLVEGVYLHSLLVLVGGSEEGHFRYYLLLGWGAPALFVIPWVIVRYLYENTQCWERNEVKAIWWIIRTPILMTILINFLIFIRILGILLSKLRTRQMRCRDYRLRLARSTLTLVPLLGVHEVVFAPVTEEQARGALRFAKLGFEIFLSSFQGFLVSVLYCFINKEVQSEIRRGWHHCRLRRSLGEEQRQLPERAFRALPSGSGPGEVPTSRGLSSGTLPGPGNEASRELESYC
Procedure: These reporter cells were purchased from Genscript (Piscataway, NJ, cat #M00451) and were maintained following the manufacturer's instructions. […] Once the cells reached 70-80% confluence, they were detached using trypsin. For all assays, cells were seeded in clear-bottom, opaque 96-well plates at a density of 10,000 cells per well in growth medium. Cells were left to attach for 10 minutes at room temperature prior to being transferred to a 37° C. incubator (5% CO2) overnight. The next day, cells were treated with incretin mimetics to assess intracellular cAMP accumulation, using the cAMP-GloTM Max Assay from Promega (Madison, WI, cat #V1682) following the manufacturer's instructions. Briefly, cells were starved in […] modified) medium (no additional supplements) for 2 hours at 37° C. incubator (5% CO2). […] Medium was removed from the culture plates, and cells were treated with the appropriate mixes of incretin mimetics. Treatment duration was for 30 min at 37° C. (5% CO2). All treatments were performed in technical duplicates and at least two independent experiments were conducted for each incretin mimetic. Cells were lyzed for 20 minutes at room temperature (150 rpm) using the kit's buffer. Following the kit's instructions, luciferin was then added for 10 minutes at room temperature (in the dark), following which luminescence was assessed. The data were plotted in GraphPad Prism, which was used to calculate IC50 values as a non-linear regression. […] These reporter cells were purchased from Genscript (Piscataway, NJ, cat #M00486). The same methodology described above was applied for these cells.

[4] = D 0, 20 mM NaPO4, 100 mM glycine, 75 mM histidine pH 7.5
[5] = D 14, 2-8 degrees, 20 mM NaPO4, 100 mM glycine, 75 mM histidine pH 7.5
[6] = D 14, Room temperature, 20 mM NaPO4, 100 mM glycine, 75 mM histidine pH 7.5
[7] = D 28, 2-8 degrees, 20 mM NaPO4, 100 mM glycine, 75 mM histidine pH 7.5
[8] = D 28, Room temperature, 20 mM NaPO4, 100 mM glycine, 75 mM histidine pH 7.5
[9] = D 56, 2-8 degrees, 20 mM NaPO4, 100 mM glycine, 75 mM histidine pH 7.5
[10] = D 56, Room temperature, 20 mM NaPO4, 100 mM glycine, 75 mM histidine pH 7.5

## semaglutide
[1]
  half-life: ~ 7 h
[2]; 2 mg/kg s.c.
  detectable in circulation until: 72 h
[2]; 2 mg/kg s.c., alone or in combination with P1229
  [C]max of semaglutide: ~ 2,000 nmol/L
[2]; single s.c. injection, 7 days
  PK profile alone versus in the co-formulation: comparable
[3]; D 0
  Monomer content semaglutide: 99.8%
[3]; [4]
  Monomer Content (%) semaglutide: 100%
  Monomer content (semaglutide, %) Reverse phase: 99.8%
  Monomer content (semaglutide, %) SEC: 100%
[3]; D 0, semaglutide formulations, 20 mM NaPO4, glycine, sucrose, histidine pH 7.5
  Monomer Content (%) semaglutide: 100%
[3]; D 7, 2-8° C., semaglutide formulations, 20 mM NaPO4, glycine, sucrose, histidine pH 7.5
  Monomer Content (%) semaglutide: 100%
[3]; D 7, RT, semaglutide formulations, 20 mM NaPO4, glycine, sucrose, histidine pH 7.5
  Monomer Content (%) semaglutide: 100%
[3]; D 7 after storage at 2-8° C.
  Monomer content semaglutide: 99.9%
[3]; D 7 after storage at room temperature
  Monomer content semaglutide: 99.9%
[3]; [5]
  Monomer content (semaglutide, %) Reverse phase: 99.8%
  Monomer content (semaglutide, %) SEC: 100%
[3]; D 14, 2-8° C., semaglutide formulations, 20 mM NaPO4, glycine, sucrose, histidine pH 7.5
  Monomer Content (%) semaglutide: 100%
[3]; D 14, RT, semaglutide formulations, 20 mM NaPO4, glycine, sucrose, histidine pH 7.5
  Monomer Content (%) semaglutide: 100%
[3]; [6]
  Monomer content (semaglutide, %) Reverse phase: 99.6%
  Monomer content (semaglutide, %) SEC: 100%
[3]; [7]
  Monomer content (semaglutide, %) Reverse phase: 99.8%
  Monomer content (semaglutide, %) SEC: 100%
[3]; D 28, 2-8° C., semaglutide formulations, 20 mM NaPO4, glycine, sucrose, histidine pH 7.5
  Monomer Content (%) semaglutide: 99.7%
[3]; D 28, RT, semaglutide formulations, 20 mM NaPO4, glycine, sucrose, histidine pH 7.5
  Monomer Content (%) semaglutide: 96.5%
[3]; [8]
  Monomer content (semaglutide, %) Reverse phase: 99.2%
  Monomer content (semaglutide, %) SEC: 100%
[3]; D 28, storage at 2-8° C., 10 mM NaPO4, 100 mM glycine, 75 mM sucrose pH 7.5
  Monomer content semaglutide: 100%
[3]; D 28, storage at room temperature, 10 mM NaPO4, 100 mM glycine, 75 mM sucrose pH 7.5
  Monomer content semaglutide: 100%
[3]; [9]
  Monomer content (semaglutide, %) Reverse phase: 99.8%
  Monomer content (semaglutide, %) SEC: 100%
[3]; D 56, 2-8° C., 20 mM NaPO4, 100 mM Glycine, 75 mM Histidine pH 7.5
  Monomer Content (%) semaglutide: 100%
[3]; D 56, 2-8° C., semaglutide formulations, 20 mM NaPO4, glycine, sucrose, histidine pH 7.5
  Monomer Content (%) semaglutide: 100%
[3]; D 56, RT, 20 mM NaPO4, 100 mM Glycine, 75 mM Histidine pH 7.5
  Monomer Content (%) semaglutide: 95.3%
[3]; D 56, RT, semaglutide formulations, 20 mM NaPO4, glycine, sucrose, histidine pH 7.5
  Monomer Content (%) semaglutide: 98.3%
[3]; [10]
  Monomer content (semaglutide, %) Reverse phase: 98.6%
  Monomer content (semaglutide, %) SEC: 100%

## tirzepatide
GIP receptor (GIPR); D 7, 2-8° C.
  EC50: 1.1 pM
GIP receptor (GIPR); D 7, RT
  EC50: 1.2 pM
GIP receptor (GIPR); D 28, 2-8° C.
  EC50: 1.6 pM
GIP receptor (GIPR); D 28, RT
  EC50: 1.4 pM
GIP receptor (GIPR); D 56, 2-8° C.
  EC50: 1.9 pM
GIP receptor (GIPR); D 56, RT
  EC50: 2 pM
[3]; D 0, same buffer (pH 7.5)
  Monomer Content (%) tirzepatide: 100%
[3]; D 7, 2-8° C.
  Monomer Content (%) tirzepatide: 100%
[3]; D 7, RT
  Monomer Content (%) tirzepatide: 100%
[3]; D 14, 2-8° C.
  Monomer Content (%) tirzepatide: 100%
[3]; D 14, RT
  Monomer Content (%) tirzepatide: 100%
[3]; D 28, 2-8° C.
  Monomer Content (%) tirzepatide: 100%
[3]; D 28, RT
  Monomer Content (%) tirzepatide: 100%
[3]; D 56, 2-8° C.
  Monomer Content (%) tirzepatide: 99.9%
[3]; D 56, RT
  Monomer Content (%) tirzepatide: 99.9%

Like-named read-outs stand apart in the source and are kept apart here.
